Reference: PubChem BioAssay (NCI)
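96-well plates; 48 h exposure; 5 concentrations. Endpoints by linear interpolation between flanking doses. Not reached: highest tested concentration assigned. GI50: concentration for 50% inhibition of growth. The concentration for full growth arrest is given as TGI.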

Key:
Experiment in all cases: NCI tumour cell line growth inhibition, 48 h
A498 renal = system: A498 renal
A549 NSCLC = system: A549 NSCLC
CAKI-1 renal = system: CAKI-1 renal
CCRF-CEM leukemia = system: CCRF-CEM leukemia
COLO 205 colon = system: COLO 205 colon
DMS 114 small cell lung = system: DMS 114 small cell lung
DMS 273 small cell lung = system: DMS 273 small cell lung
EKVX NSCLC = system: EKVX NSCLC
HCC-2998 colon = system: HCC-2998 colon
HCT-116 colon = system: HCT-116 colon
HCT-15 colon = system: HCT-15 colon
HOP-18 NSCLC = system: HOP-18 NSCLC
HOP-62 NSCLC = system: HOP-62 NSCLC
HOP-92 NSCLC = system: HOP-92 NSCLC
HT29 colon = system: HT29 colon
IGROV1 ovarian = system: IGROV1 ovarian
K-562 leukemia = system: K-562 leukemia
KM12 colon = system: KM12 colon
KM20L2 colon = system: KM20L2 colon
LOX IMVI melanoma = system: LOX IMVI melanoma
M19-MEL melanoma = system: M19-MEL melanoma
MALME-3M melanoma = system: MALME-3M melanoma
MCF7 breast = system: MCF7 breast
MOLT-4 leukemia = system: MOLT-4 leukemia
NCI-H226 lung = system: NCI-H226 lung
NCI-H23 lung = system: NCI-H23 lung
NCI-H322M lung = system: NCI-H322M lung
NCI-H460 lung = system: NCI-H460 lung
NCI-H522 lung = system: NCI-H522 lung
NCI/ADR-RES ovarian = system: NCI/ADR-RES ovarian
OVCAR-3 ovarian = system: OVCAR-3 ovarian
OVCAR-4 ovarian = system: OVCAR-4 ovarian
OVCAR-5 ovarian = system: OVCAR-5 ovarian
OVCAR-8 ovarian = system: OVCAR-8 ovarian
P388 leukemia = system: P388 leukemia
P388/ADR leukemia = system: P388/ADR leukemia
RPMI-8226 leukemia = system: RPMI-8226 leukemia
RXF 393 renal = system: RXF 393 renal
SF-268 CNS = system: SF-268 CNS
SF-295 CNS = system: SF-295 CNS
SF-539 CNS = system: SF-539 CNS
SK-MEL-2 melanoma = system: SK-MEL-2 melanoma
SK-MEL-28 melanoma = system: SK-MEL-28 melanoma
SK-MEL-5 melanoma = system: SK-MEL-5 melanoma
SK-OV-3 ovarian = system: SK-OV-3 ovarian
SN12C renal = system: SN12C renal
SN12K1 renal = system: SN12K1 renal
SNB-19 CNS = system: SNB-19 CNS
SNB-75 CNS = system: SNB-75 CNS
SNB-78 CNS = system: SNB-78 CNS
SW-620 colon = system: SW-620 colon
U251 CNS = system: U251 CNS
UACC-257 melanoma = system: UACC-257 melanoma
UACC-62 melanoma = system: UACC-62 melanoma
UO-31 renal = system: UO-31 renal
XF 498 CNS = system: XF 498 CNS

C1C[N-]1.C1C[N-]1.[Cl][Pt+2][Cl] showed a GI50 (A498 renal) of 36.2 µM, a TGI (A498 renal) of over 100 µM and a GI50 (A549 NSCLC) of 25.5 µM. It also gave a TGI (A549 NSCLC) of over 100 µM, a GI50 (CAKI-1 renal) of 15.1 µM and a TGI (CAKI-1 renal) of 60 µM. It also gave a GI50 (CCRF-CEM leukemia) of 3.66 µM, a TGI (CCRF-CEM leukemia) of 16.4 µM and a GI50 (COLO 205 colon) of 15 µM. For the same compound, the TGI (COLO 205 colon) was 30.7 µM, the GI50 (DMS 114 small cell lung) was 0.0655 µM and the TGI (DMS 114 small cell lung) was 1.02 µM. For the same compound, the GI50 (DMS 273 small cell lung) was 9.92 µM, the TGI (DMS 273 small cell lung) was 41.8 µM and the GI50 (EKVX NSCLC) was 13.8 µM. It also gave a TGI (EKVX NSCLC) of 38.5 µM, a GI50 (HCC-2998 colon) of 35.2 µM and a TGI (HCC-2998 colon) of 59.4 µM. For the same compound, the GI50 (HCT-116 colon) was 16.1 µM, the TGI (HCT-116 colon) was 36.7 µM and the GI50 (HCT-15 colon) was 14.4 µM. It also gave a TGI (HCT-15 colon) of 34.9 µM, a GI50 (HOP-18 NSCLC) of 26.7 µM and a TGI (HOP-18 NSCLC) of 72.8 µM. It also gave a GI50 (HOP-62 NSCLC) of 32.6 µM, a TGI (HOP-62 NSCLC) of over 100 µM and a GI50 (HOP-92 NSCLC) of 41.1 µM. The TGI (HOP-92 NSCLC) was 86.4 µM, the GI50 (HT29 colon) was 17.5 µM and the TGI (HT29 colon) was 45 µM. For the same compound, the GI50 (IGROV1 ovarian) was 12.8 µM, the TGI (IGROV1 ovarian) was 41 µM and the GI50 (K-562 leukemia) was 17 µM. The TGI (K-562 leukemia) was 50.6 µM, the GI50 (KM12 colon) was 29.7 µM and the TGI (KM12 colon) was 83.5 µM. For the same compound, the GI50 (KM20L2 colon) was 13.7 µM, the TGI (KM20L2 colon) was 31.8 µM and the GI50 (LOX IMVI melanoma) was 16.2 µM. The TGI (LOX IMVI melanoma) was 49.3 µM, the GI50 (M19-MEL melanoma) was 14.3 µM and the TGI (M19-MEL melanoma) was 43.1 µM. For the same compound, the GI50 (MALME-3M melanoma) was 18.4 µM, the TGI (MALME-3M melanoma) was 46.8 µM and the GI50 (MCF7 breast) was 15.2 µM. For the same compound, the TGI (MCF7 breast) was over 100 µM, the GI50 (MOLT-4 leukemia) was 1.79 µM and the TGI (MOLT-4 leukemia) was 11 µM. For the same compound, the GI50 (NCI-H226 lung) was 19.7 µM, the TGI (NCI-H226 lung) was 52.6 µM and the GI50 (NCI-H23 lung) was 23 µM. The TGI (NCI-H23 lung) was 62.8 µM, the GI50 (NCI-H322M lung) was 26.8 µM and the TGI (NCI-H322M lung) was 90.3 µM. The GI50 (NCI-H460 lung) was 5.04 µM, the TGI (NCI-H460 lung) was 22.3 µM and the GI50 (NCI-H522 lung) was 6 µM. The TGI (NCI-H522 lung) was 31.3 µM, the GI50 (NCI/ADR-RES ovarian) was 21.6 µM and the TGI (NCI/ADR-RES ovarian) was 60 µM. The GI50 (OVCAR-3 ovarian) was 22 µM, the TGI (OVCAR-3 ovarian) was 74.5 µM and the GI50 (OVCAR-4 ovarian) was 24 µM. The TGI (OVCAR-4 ovarian) was 91 µM, the GI50 (OVCAR-5 ovarian) was 39.7 µM and the TGI (OVCAR-5 ovarian) was over 100 µM. The GI50 (OVCAR-8 ovarian) was 29.3 µM, the TGI (OVCAR-8 ovarian) was over 100 µM and the GI50 (P388 leukemia) was 3.43 µM. The TGI (P388 leukemia) was 13.6 µM, the GI50 (P388/ADR leukemia) was 4.79 µM and the TGI (P388/ADR leukemia) was 15.3 µM. For the same compound, the GI50 (RPMI-8226 leukemia) was 14 µM, the TGI (RPMI-8226 leukemia) was 46 µM and the GI50 (RXF 393 renal) was 14.1 µM. It also gave a TGI (RXF 393 renal) of 33.6 µM, a GI50 (SF-268 CNS) of 8.94 µM and a TGI (SF-268 CNS) of 43.9 µM. For the same compound, the GI50 (SF-295 CNS) was 21.3 µM, the TGI (SF-295 CNS) was 94.9 µM and the GI50 (SF-539 CNS) was 22.4 µM. For the same compound, the TGI (SF-539 CNS) was 67.5 µM, the GI50 (SK-MEL-2 melanoma) was 18.5 µM and the TGI (SK-MEL-2 melanoma) was 41.7 µM. It also gave a GI50 (SK-MEL-28 melanoma) of 16.1 µM, a TGI (SK-MEL-28 melanoma) of 46.9 µM and a GI50 (SK-MEL-5 melanoma) of 13.4 µM. The TGI (SK-MEL-5 melanoma) was 25 µM, the GI50 (SK-OV-3 ovarian) was 17.9 µM and the TGI (SK-OV-3 ovarian) was 53.3 µM. It also gave a GI50 (SN12C renal) of 20.2 µM, a TGI (SN12C renal) of 74.7 µM and a GI50 (SN12K1 renal) of 17.7 µM. The TGI (SN12K1 renal) was 47.8 µM, the GI50 (SNB-19 CNS) was 12.8 µM and the TGI (SNB-19 CNS) was 39.7 µM. The GI50 (SNB-75 CNS) was 18.9 µM, the TGI (SNB-75 CNS) was over 100 µM and the GI50 (SNB-78 CNS) was 21.6 µM. For the same compound, the TGI (SNB-78 CNS) was over 100 µM, the GI50 (SW-620 colon) was 13.5 µM and the TGI (SW-620 colon) was 36.2 µM. For the same compound, the GI50 (U251 CNS) was 13.5 µM, the TGI (U251 CNS) was 34.8 µM and the GI50 (UACC-257 melanoma) was 27.7 µM. The TGI (UACC-257 melanoma) was 80.2 µM, the GI50 (UACC-62 melanoma) was 12.7 µM and the TGI (UACC-62 melanoma) was 29.8 µM. The GI50 (UO-31 renal) was 21.6 µM, the TGI (UO-31 renal) was 47.9 µM and the GI50 (XF 498 CNS) was 14.5 µM. The TGI (XF 498 CNS) was 41 µM.
